Measurements taken from paper PMC9408879.

Key:
[1] = biological target: Alexa488-labeled human gelsolin (human) (UniProt P06396); experiment: fluorescence polarisation; steady-state anisotropy of 0.2 uM Alexa488-GSN under polymerizing conditions (100 mM KCl, 1 mM MgCl2), millimolar Ca2+; 0.1 uM p53, 0.2 uM JMY and 2 uM filamentous actin added
[2] = biological target: Alexa488-labeled human gelsolin (human) (UniProt P06396); experiment: Alexa488 fluorescence emission change on sequential additions; 0.5 uM Alexa488-labeled protein (p53, JMY or GSN); 1 uM actin, then 0.5 uM of the other proteins added one after another; no polymerizing salts; 1 mM Ca2+
[3] = biological target: Alexa488-labeled mouse JMY (mouse) (UniProt Q9QXM1); experiment: as above
[4] = biological target: Alexa488-labeled human p53 (human) (UniProt P04637); experiment: as above

Substance	steady-state anisotropy of Alexa488-GSN [1]	decrease of GSNAlexa488 emission [2]	decrease of JMYAlexa488 emission [3]	decrease of p53Alexa488 emission [4]
rabbit skeletal muscle actin (from UniProt P68135 1-377) (natural protein)	0.138	13%	11%	–
rabbit skeletal muscle actin (from UniProt P68135 1-377) (natural protein; other documents disagree on this pair)	–	–	–	3%
